pIC50: −log10 of the molar value.

A word on the pIC50: it is −log10 of the IC50, conventionally taken in molar units.

For the assay, the target named is T1, human Fibroblast activation protein alpha (hFAP) (Homo sapiens, UniProt Q12884).
T1 construct: Proteros, 38-760 (PR-0071); purchased Proteros PR-0071
T1 sequence (Q12884 38-760): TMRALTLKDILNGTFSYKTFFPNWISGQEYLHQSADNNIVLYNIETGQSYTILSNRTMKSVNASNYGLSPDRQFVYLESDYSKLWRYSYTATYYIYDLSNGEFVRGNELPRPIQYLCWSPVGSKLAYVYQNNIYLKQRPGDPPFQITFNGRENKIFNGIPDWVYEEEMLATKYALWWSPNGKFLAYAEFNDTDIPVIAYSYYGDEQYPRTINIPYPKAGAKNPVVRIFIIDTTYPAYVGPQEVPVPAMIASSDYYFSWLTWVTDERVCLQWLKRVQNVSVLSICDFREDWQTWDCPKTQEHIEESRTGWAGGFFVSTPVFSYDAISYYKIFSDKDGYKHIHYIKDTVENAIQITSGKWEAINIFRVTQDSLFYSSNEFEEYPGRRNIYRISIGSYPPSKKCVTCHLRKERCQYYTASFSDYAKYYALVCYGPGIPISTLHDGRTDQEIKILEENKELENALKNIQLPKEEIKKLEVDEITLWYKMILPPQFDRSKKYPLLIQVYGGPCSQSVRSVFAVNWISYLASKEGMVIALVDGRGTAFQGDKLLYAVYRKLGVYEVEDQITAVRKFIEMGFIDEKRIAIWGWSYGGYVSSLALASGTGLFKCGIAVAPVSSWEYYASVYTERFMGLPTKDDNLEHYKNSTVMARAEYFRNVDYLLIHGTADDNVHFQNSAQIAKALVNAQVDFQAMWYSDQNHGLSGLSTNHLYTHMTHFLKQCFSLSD
Put plainly: hFAP inhibition assay (tight binders). Type of assay: biochemical. The following applies: Ala-Pro-AMC 20 μM, n = 1 or geometric mean (n = 2-5). The method, then: Data were analyzed in Genedata Screener®.
`C#CC1(c2ccc3nccc(C(=O)NCC(=O)N4CSC[C@H]4C#N)c3c2)CCOCC1` [Example 57, (R)—N-(2-(4-Cyanothiazolidin-3-yl)-2-oxoethyl)-6-(4-ethynyl-tetrahydro-2H-pyran-4-yl)quinoline-4-carboxamide] gave a pIC50 of 10.03.

On to `N#C[C@@H]1CSCN1C(=O)CNC(=O)c1ccnc2ccc(CCC(F)(F)F)cc12` [Example 58, (R)—N-(2-(4-Cyanothiazolidin-3-yl)-2-oxoethyl)-6-(3,3,3-trifluoropropyl)quinoline-4-carboxamide], for which the pIC50 was 10.07.

For the compound `N#C[C@@H]1CSCN1C(=O)CNC(=O)c1ccnc2ccc(C3(C#N)CCOCC3)cc12` [Example 59, (R)-6-(4-Cyanotetrahydro-2H-pyran-4-yl)-N-(2-(4-cyanothiazolidin-3-yl)-2-oxoethyl)quinoline-4-carboxamide], the pIC50 was 10.41.

`N#C[C@@H]1CSCN1C(=O)CNC(=O)c1ccnc2ccc(C3(C#N)CCCCC3)cc12` [Example 60, (R)-6-(1-Cyanocyclohexyl)-N-(2-(4-cyanothiazolidin-3-yl)-2-oxoethyl)quinoline-4-carboxamide] gave a pIC50 of 10.43.

`N#C[C@@H]1CSCN1C(=O)CNC(=O)c1ccnc2ccc(C3(F)CCOCC3)cc12` [Example 64, (R)—N-(2-(4-Cyanothiazolidin-3-yl)-2-oxoethyl)-6-(4-fluorotetrahydro-2H-pyran-4-yl)quinoline-4-carboxamide]: the pIC50 was 10.31.

Compound `COC1(c2ccc3nccc(C(=O)NCC(=O)N4CSC[C@H]4C#N)c3c2)CCOCC1` [Example 66, (R)—N-(2-(4-Cyanothiazolidin-3-yl)-2-oxoethyl)-6-(4-methoxy-tetrahydro-2H-pyran-4-yl)quinoline-4-carboxamide] had a pIC50 of 9.85.

For the compound `N#C[C@@H]1CSCN1C(=O)CNC(=O)c1ccnc2ccc(C3(C#N)CC3)cc12` [Example 70, (R)-6-(1-Cyanocyclopropyl)-N-(2-(4-cyanothiazolidin-3-yl)-2-oxoethyl)quinoline-4-carboxamide], the pIC50 is 10.15.

`COCCCOc1ccc(-c2ccc3nccc(C(=O)NCC(=O)N4CSC[C@H]4C#N)c3c2)cc1` [Example 72, (R)—N-(2-(4-Cyanothiazolidin-3-yl)-2-oxoethyl)-6-(4-(3-methoxy-propoxy)phenyl)quinoline-4-carboxamide] had a pIC50 of 10.59. This pIC50 lies 0.44 log units higher than the previous one.

In turn, `CCCOc1ccc2nccc(C(=O)NCC(=O)N3CSC[C@H]3C#N)c2c1` [Example 73, (R)—N-(2-(4-Cyanothiazolidin-3-yl)-2-oxoethyl)-6-propoxyquinoline-4-carboxamide] had a pIC50 of 10.38.

Regarding `N#C[C@@H]1CSCN1C(=O)CNC(=O)c1ccnc2ccc(OCCF)cc12` [Example 74, (R)—N-(2-(4-Cyanothiazolidin-3-yl)-2-oxoethyl)-6-(2-fluoroethoxy)-quinoline-4-carboxamide], the pIC50 was 10.15.

`N#C[C@@H]1CSCN1C(=O)CNC(=O)c1ccnc2ccc(C3(F)CCC3)cc12` [Example 75, (R)—N-(2-(4-Cyanothiazolidin-3-yl)-2-oxoethyl)-6-(1-fluoro-cyclobutyl)quinoline-4-carboxamide] gave a pIC50 of 10.21.

For the compound `CCOC1(c2ccc3nccc(C(=O)NCC(=O)N4CSC[C@H]4C#N)c3c2)CC1` [Example 76, (R)—N-(2-(4-Cyanothiazolidin-3-yl)-2-oxoethyl)-6-(1-ethoxycyclopropyl)quinoline-4-carboxamide], the pIC50 was 9.17. This pIC50 lies 1.04 log units lower than the previous one.

`N#C[C@@H]1CSCN1C(=O)CNC(=O)c1ccnc2ccc(Cn3cccn3)cc12` [Example 80, (R)-6-((1H-Pyrazol-1-yl)methyl)-N-(2-(4-cyanothiazolidin-3-yl)-2-oxoethyl)quinoline-4-carboxamide] gave a pIC50 of 9.77.

On to `COCCCc1ccc2nccc(C(=O)NCC(=O)N3CSC[C@H]3C#N)c2c1` [Example 81, (R)—N-(2-(4-cyanothiazolidin-3-yl)-2-oxoethyl)-6-(3-methoxypropyl)quinoline-4-carboxamide], for which the pIC50 was 10.01.

On to `COCCc1ccc2nccc(C(=O)NCC(=O)N3CSC[C@H]3C#N)c2c1` [Example 82, (R)—N-(2-(4-cyanothiazolidin-3-yl)-2-oxoethyl)-6-(2-methoxyethyl)quinoline-4-carboxamide], for which the pIC50 was 9.92.
